{"source": "patent US10463649B2", "about": "“Inhibitors of Mc1-1 as drugs to overcome resistance to BRAF inhibitors and MEK inhibitors” (Texas Tech University System, priority 2015, dated 2019)", "key": {"Mcl-1": {"system": "Mcl-1", "assay": "Western blotting for Mcl-1 expression in SK-MEL-28 cells", "assay_type": "cell-based", "details": "72 hours", "experimental": "Each study was performed three times independently."}, "A375 cells": {"system": "A375 cells", "assay": "Cell viability / cytotoxicity by sulforhodamine B (SRB) assay in A375 cells"}, "A375-R cells": {"system": "A375-R cells", "assay": "Tumor therapy: A375-R xenografts in athymic nude mice", "assay_type": "in vivo", "details": "day 30, vemurafenib 25 mg/kg twice a day oral, TW-37 30 mg/kg i.p. thrice a week, Mcl-1 siRNA intratumoral twice a week"}}}
{"smiles": "CCCS(=O)(=O)Nc1ccc(F)c(C(=O)c2c[nH]c3ncc(-c4ccc(Cl)cc4)cc23)c1F", "note": "[vemurafenib]", "values": [{"measurement": "Increase in expression of Mcl-1", "setting": "Mcl-1; 0.1 μM vemurafenib", "result": 10, "unit": "fold"}, {"measurement": "Increase in expression of Mcl-1", "setting": "Mcl-1; 0.2 μM vemurafenib", "result": 11, "unit": "fold"}, {"measurement": "Increase in expression of Mcl-1", "setting": "Mcl-1; 0.4 μM vemurafenib", "result": 14, "unit": "fold"}, {"measurement": "Reduction of cell survival", "setting": "A375 cells; A375 cells, 0.2 μM vemurafenib, 72 hours", "result": "about 55%"}, {"measurement": "IC50", "setting": "A375 cells; Homo sapiens, A-375, 72 h, read-out: IC50 of vemurafenib", "result": 100, "unit": "nM"}, {"measurement": "Average tumor volume", "setting": "A375-R cells", "result": "1688±156.19", "unit": "mm3"}]}
